For 1 molecule, IC50 results are on record in PMC5641445 (Journal of medicinal chemistry, 2017).

By UniProt entry, the sequences of proteins in these tests, tags left out.
UniProt P43249, whole entry: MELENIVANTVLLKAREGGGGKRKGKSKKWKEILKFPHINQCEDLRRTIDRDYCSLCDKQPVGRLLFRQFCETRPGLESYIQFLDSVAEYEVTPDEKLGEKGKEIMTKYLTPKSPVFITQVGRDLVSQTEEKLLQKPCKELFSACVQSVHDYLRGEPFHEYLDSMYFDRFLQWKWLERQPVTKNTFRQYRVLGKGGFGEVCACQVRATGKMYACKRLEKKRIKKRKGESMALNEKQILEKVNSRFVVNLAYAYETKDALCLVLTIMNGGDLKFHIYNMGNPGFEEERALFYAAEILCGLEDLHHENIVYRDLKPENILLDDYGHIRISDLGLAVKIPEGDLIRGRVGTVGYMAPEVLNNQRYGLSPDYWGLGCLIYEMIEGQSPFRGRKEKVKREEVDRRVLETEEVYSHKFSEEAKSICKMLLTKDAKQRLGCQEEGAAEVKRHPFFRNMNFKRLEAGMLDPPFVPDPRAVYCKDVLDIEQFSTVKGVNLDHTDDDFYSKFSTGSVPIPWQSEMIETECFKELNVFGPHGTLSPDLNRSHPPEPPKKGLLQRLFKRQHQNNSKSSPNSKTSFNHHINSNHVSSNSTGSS

The test deals with bovine GRK5 (Bos taurus, UniProt P43249). In words: GRK5 kinase inhibition. The settings on record: read-out: GRK5 IC50; average of three separate experiments run in duplicate; error of the mean.

`O=C(NCc1ccn[nH]1)c1cc([C@@H]2CCNC[C@H]2COc2ccc3c(c2)OCO3)ccc1F` [14as, N-((1H-pyrazol-5-yl)methyl)-5-((3S,4R)-3-((benzo[d][1,3]dioxol-5-yloxy)methyl)piperidin-4-yl)-2-fluorobenzamide]: the IC50 is 7.09 ± 0.73 µM.

The term IC50 denotes the midpoint of a concentration-inhibition curve.
